# Test results: PubChem BioAssay AID504577 (NMMLSC, 2011)
# The entries are a selection whose mix differs from that of the whole data set. Activity calls are given as the source filed them. No stated cut-off is given here; in the data, active means response mostly above about 7.3% (no sharp cut-off); inactive means mostly below about 5.4%.
# Experiment: regulators of yeast V-ATPase proton pumping, primary screen, pHLuorin cytosolic pH fluorescence (AID 504577); further: actives read high
# Settings: S. cerevisiae, at 10 µM, stronger effect = higher value
row,SMILES,response
1,CCC(=O)N(c1ccccc1)C1(COC)CCN(CCn2nnn(CC)c2=O)CC1,inactive: -2.84%
2,CCC(=O)N(c1ccccc1)C1(COC)CCN(CCc2cccs2)CC1,inactive: 1.08%
